From ChEMBL document CHEMBL1201862, “PubChem BioAssay data set” (2004)
This is a selection; strong and weak results do not stand in their true shares. Only a part of the results of these assays is listed, not drawn at random. The source made the active and inactive calls. The rule behind the calls is not given here.

Target: T1, Thioredoxin reductase 1, cytoplasmic (Rattus norvegicus) (UniProt O89049)
T1 sequence (whole entry): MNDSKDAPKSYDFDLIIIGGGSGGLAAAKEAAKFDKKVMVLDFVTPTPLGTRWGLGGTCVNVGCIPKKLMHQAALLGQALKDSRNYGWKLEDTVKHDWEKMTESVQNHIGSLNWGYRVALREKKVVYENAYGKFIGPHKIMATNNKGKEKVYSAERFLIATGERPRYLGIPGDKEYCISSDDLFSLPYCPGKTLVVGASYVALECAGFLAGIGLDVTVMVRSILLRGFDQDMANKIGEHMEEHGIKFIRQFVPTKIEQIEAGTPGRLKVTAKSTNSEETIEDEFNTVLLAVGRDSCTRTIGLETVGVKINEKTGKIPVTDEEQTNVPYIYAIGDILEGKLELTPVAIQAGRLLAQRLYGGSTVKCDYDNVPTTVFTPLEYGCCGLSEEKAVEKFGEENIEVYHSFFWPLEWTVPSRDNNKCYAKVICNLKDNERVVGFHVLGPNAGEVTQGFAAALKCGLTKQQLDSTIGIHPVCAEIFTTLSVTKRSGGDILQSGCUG
Assay: qHTS Assay for Inhibitors of Mammalian Selenoprotein Thioredoxin Reductase 1 (TrxR1): qHTS. [Related pubchem assays (depositor defined):AID488771]
Type: functional

Question: How did the Potency turn out when O=C(O)C(O)c1ccccc1 (stereo unspecified) was run?
Answer: The Potency was “inactive”.
